In one series the test system is C57Bl6 mice. The experiment in a line: Determination of acute toxicity. Conditions: acute toxicity LD50 over minimum efficacious dosage.
Another series relates to CD-1 mice. The series can be described thus: Short-term (10-day) escalating toxicology study in CD-1 mice. It is filed as in vivo, mouse. As to conditions: 10-day study, using different parameters (dosage, Cmax, AUC). As for the experimental part: A 10-day toxicology study in CD-1 mice was performed to determine NOAEL of Compound 64, where animals (n=5) were administered once daily for 10 consecutive days. Clinical signs, body weights, food consumptions, rectal temperature, hematology, serum chemistry, plasma exposure, necropsies, tissue histopathology, were examined.
A 10-day toxicology study in CD-1 mice was performed to determine NOAEL of Compound 25, where animals (n=5) were administered once daily for 10 consecutive days. Clinical signs, body weights, food consumptions, rectal temperature, hematology, serum chemistry, plasma exposure, necropsies, tissue histopathology, were examined.
10-day escalating toxicology study in CD-1 mice: Different doses of compounds (e.g. Compound 25 and Compound 64) were given to male CD1 mice once daily via oral gavage, for 10 consecutive days. […] Clinical signs were recorded twice daily. Body weight and food consumption were recorded once daily. Rectal temperature was recorded once every two days for a total of 5 times throughout the study. […] Hematology, serum chemistry, plasma exposure, and tissue distribution were evaluated post 10th dosing in the TK satellite animals. […] Based on the outcomes of the toxicology parameters, NOAEL (no-observable-adverse-effect-level) and MTD (maximal tolerable dose) were determined.

Two compounds from US20260306502A1, “MITOCHONDRIAL UNCOUPLERS FOR TREATMENT OF METABOLIC DISEASES AND CANCER” (Mito Biopharma, LLC, priority 2022, published 2026) can be followed below.

In the case of `COCCN(CCOC)Cc1cc(Cl)cc(C(=O)Nc2nc3ccc(C(F)(F)F)cc3s2)c1O` [Compound 25, 3-((bis(2-methoxyethyl)amino)methyl)-5-chloro-2-hydroxy-N-(6-(trifluoromethyl)benzo[d]thiazol-2-yl)benzamide], the LD50/MED ratio with C57Bl6 mice is on record as above 200. Besides, in the series on CD-1 mice, the NOAEL/MED ratio entry was “over 19”. For the compound `COCCOCc1cc(C(F)(F)F)cc2sc(NC(=O)c3cc(Cl)cc(CN4C[C@@H](C)O[C@@H](C)C4)c3O)nc12` [Compound 64, 5-chloro-3-((cis-2,6-dimethylmorpholino)methyl)-2-hydroxy-N-(4-((2-methoxyethoxy)methyl)-6-(trifluoromethyl)benzo[d]thiazol-2-yl)benzamide], in the series with C57Bl6 mice, the LD50/MED ratio entry is listed as “over 400”.
